Laboratory results from paper PMC11790914, “Chemogenomics for steroid hormone receptors (NR3)” (Communications Chemistry, 2025).
Several values for one entry are separate records, joined by “and”; a condition that tells them apart may be missing. Identical values can stand only once. Like-named read-outs stand apart in the source and are kept apart here.

Protein sequences, listed by entry. Tags and fused reporters are not part of them.
UniProt P48730, whole entry, species assumed: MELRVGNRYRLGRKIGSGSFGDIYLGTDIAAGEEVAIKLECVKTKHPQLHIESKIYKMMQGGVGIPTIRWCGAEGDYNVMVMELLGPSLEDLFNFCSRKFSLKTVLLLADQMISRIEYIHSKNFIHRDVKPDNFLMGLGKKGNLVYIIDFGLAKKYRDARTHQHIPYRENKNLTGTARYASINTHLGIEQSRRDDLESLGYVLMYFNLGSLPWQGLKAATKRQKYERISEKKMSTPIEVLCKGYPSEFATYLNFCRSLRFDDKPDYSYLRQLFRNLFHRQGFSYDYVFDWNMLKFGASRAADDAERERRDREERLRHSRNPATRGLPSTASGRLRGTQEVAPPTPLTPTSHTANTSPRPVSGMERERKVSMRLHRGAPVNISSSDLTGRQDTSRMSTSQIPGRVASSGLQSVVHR

Tests used:
Gal4-VP16 = format: cell-based; conditions: vs. DMSO ctrl, single replicates n=1-3
CSNK1D = biological target: T1, CSNK1D (Homo sapiens, UniProt P48730); assay: Liability panel screening by DSF: CSNK1D; format: binding; conditions: read-out: Mean ΔTM CSNK1D
T1 construct: made in house

TRIM24 = biological target: T2, TRIM24 (Homo sapiens, UniProt O15164); assay: Liability panel screening by DSF: TRIM24; format: binding; conditions: n=2
T2 construct: This panel comprised ten highly ligandable kinases and bromodomains; made in house
T2 sequence (O15164 899-1004 limits assumed): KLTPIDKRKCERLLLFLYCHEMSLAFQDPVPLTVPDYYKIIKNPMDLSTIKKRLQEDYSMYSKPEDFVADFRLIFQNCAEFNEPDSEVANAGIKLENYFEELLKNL

[1] = test system: NF-κB activity in HEK293 NF-κB reporter cells; assay: NF-kB activity assay (GFP reporter, ionomycin/PMA); format: cell-based; conditions: compounds at recommended concentrations, imaged over 24 h, n = 3
[2] = test system: ATF6 activity in Hela ATF6 reporter cells; assay: Endoplasmic reticulum stress assay (ATF6 Renilla luciferase reporter, tunicamycin); format: cell-based; conditions: Homo sapiens, single replicates n=1 to n=5, read-out: ER stress [rel. ATF6 activity]

## C[C@]12CCC(=O)C=C1CC[C@@H]1[C@@H]2[C@@H](O)C[C@]2(C=O)[C@@H](C(=O)CO)CC[C@@H]12 [Aldosterone]
Gal4-VP16; 1 µM
  VP16 control [fold reporter gene activity]: 1.02 fold reporter gene activity and 1.01 fold reporter gene activity and 1.14 fold reporter gene activity

## CC(C)(c1ccc(O)cc1)c1ccc(O)cc1 [Bisphenol A]
CSNK1D
  ΔTm at 20 µM: 0.55 °C
Gal4-VP16; 0.3 µM
  VP16 control [fold reporter gene activity]: 1.17 fold reporter gene activity and 1.15 fold reporter gene activity and 1.13 fold reporter gene activity

## C[C@]12CC[C@@H]3c4ccc(O)cc4C[C@@H](CCCCCCCCC[S+]([O-])CCCC(F)(F)C(F)(F)F)[C@H]3[C@@H]1CC[C@@H]2O (some centres unmarked) [Fulvestrant]
TRIM24
  ΔTm at 20 µM: 1.64 °C

## Cc1c(N2C(=O)C3C(O)CCN3C2=O)ccc(C#N)c1Cl (centres unmarked) [BMS564929]
[1]
  NF-κB activity (inflammatory response to ionomycin/PMA): anti-inflammatory effect
Gal4-VP16; 1 µM
  VP16 control [fold reporter gene activity]: 1.20 fold reporter gene activity and 1.05 fold reporter gene activity and 1.29 fold reporter gene activity
[2]
  activity at 1 µM: 77%

## C[C@]1(O)CC[C@H]2[C@@H]3CCC4=CC(=O)CCC4=C3C=C[C@@]21C [Methyltrienolone]
Gal4-VP16; 1 µM
  VP16 control [fold reporter gene activity]: 1.17 fold reporter gene activity and 0.94 fold reporter gene activity and 1.19 fold reporter gene activity
